Results taken from PubChem BioAssay AID651635 (National Center for Advancing Translational Sciences (NCATS), 2012).
Only a part is listed here, and it is no random draw. Results filed as inconclusive are left out. Where a call stands in place of a potency, no number is given. The source made the active and inactive calls. Calls follow the shape of the dose curve; as a rule, active = well fitted cell-killing curve with a large enough effect; inconclusive = small, poorly fitted or top-dose-only effect, or effect the other way; inactive = no such curve, though single readings can be large or run the other way.

test: Viability Counterscreen for Primary qHTS for Inhibitors of ATXN expression; details: S2 cells (HEK-293 line with an ATXN2-luciferase reporter) viability, CellTiter-Fluor protease fluorescence, 24 h; series mostly up to 56.7 µM; also: nearly all actives have a fitted effect of over 40% in size
Potency is read from the fitted curve at half-maximal effect.

SMILES | Potency
CP(=O)(Nc1ccc(SC(F)(F)F)cc1)Oc1ccc(F)cc1 (centres undefined) | inactive
CCOP(C)(=S)SCC(=O)NC(C)(CC)C(=O)O (centres undefined) | inactive
O=C(OCCN1CCN(CCOCc2ccccc2)CC1)C(O)(c1ccccc1)c1ccccc1 | inactive
CCOP(=O)(CC)Oc1ccc([N+](=O)[O-])cc1 (centres undefined) | inactive
CP(=O)(Nc1ccccc1F)Oc1ccccc1 (centres undefined) | inactive
CCN(CC)CCCOC(=O)C(O)(c1ccccc1)C1CCCCC1 (centres undefined) | inactive
Cc1c([N+](=O)[O-])cc([N+](=O)[O-])c(Br)c1[N+](=O)[O-] | inactive
CCCCCOc1ccc(NP(C)(=O)Oc2ccc(Cl)cc2Cl)cc1 (centres undefined) | inactive
CP(=O)(Nc1ccccc1)Oc1ccc(F)cc1 (centres undefined) | inactive
Cc1cccc([N+](=O)[O-])c1[N+](=O)[O-] | inactive
CCOC(=O)c1ccc(NP(C)(=O)Oc2ccc(F)cc2)cc1 (centres undefined) | inactive
CC1=NCCc2c1[nH]c1ccccc21.O=[N+]([O-])c1cc([N+](=O)[O-])c(O)c([N+](=O)[O-])c1 | inactive
O=[N+]([O-])c1cccc([N+](=O)[O-])c1 | inactive
Cc1cc(C)cc(OP(C)(=O)Nc2ccccn2)c1 (centres undefined) | inactive
CP(=O)(Nc1cccc(Br)c1)Oc1ccccc1 (centres undefined) | inactive
Cc1ccc(C)c(NP(C)(=O)Oc2ccccc2)c1 (centres undefined) | inactive
COc1ccccc1OP(C)(=O)Nc1cccc(Br)c1 (centres undefined) | inactive
Cc1cc(C)cc(OP(C)(=O)Nc2ccc(C)cc2C)c1 (centres undefined) | inactive
CCOC(=O)c1ccc(NP(C)(=O)Oc2cc(C)cc(C)c2)cc1 (centres undefined) | inactive
O=[N+]([O-])c1cc([N+](=O)[O-])c(-c2cnn(-c3ccccc3)c2)c([N+](=O)[O-])c1 | inactive
O=[N+]([O-])c1cc([N+](=O)[O-])c(-n2nnc3ccccc32)c([N+](=O)[O-])c1 | inactive
CC(C)N(CCCl)C(C)C | inactive
CN(Cc1cccnc1)C(=O)COc1ccc(Cl)c(Cl)c1.O=[N+]([O-])c1cc([N+](=O)[O-])c(O)c([N+](=O)[O-])c1 | active: 10 µM
CN1CCCCC1COC(=O)C1(O)c2ccccc2CCc2ccccc21 (centres undefined) | inactive
COc1ccccc1OP(C)(=O)Nc1c(C)cccc1C (centres undefined) | inactive

SMILES | Potency
CCCOc1ccc(NP(C)(=O)Oc2ccc(Cl)cc2)cc1 (centres undefined) | inactive
CP(=O)(Nc1ccc(SC(F)(F)F)cc1)Oc1ccccc1 (centres undefined) | inactive
CC1=C2N=C(C=C3N=C(C(C)=C4[N-][C@@](C)([C@@H]5N=C1[C@](C)(CCC(=O)NC[C@@H](C)OP(=O)([O-])O[C@H]1[C@@H](O)[C@@H](n6cnc7cc(C)c(C)cc76)O[C@@H]1CO)[C@H]5CC(N)=O)[C@@](C)(CC(N)=O)[C@@H]4CCC(N)=O)[C@@](C)(CC(N)=O)[C@@H]3CCC(N)=O)C(C)(C)[C@@H]2CCC(N)=O.[C-]#N.[Co+3] | inactive
CP(=S)(Nn1cnnc1)Oc1ccccc1 (centres undefined) | inactive
COc1ccccc1OP(C)(=O)Nc1ccccc1 (centres undefined) | inactive
CP(=O)(Nc1ccccc1Br)Oc1ccccc1 (centres undefined) | inactive
CCOP(C)(=S)SCC(=O)NC(C)C(=O)O (centres undefined) | inactive
O=[N+]([O-])c1cc([N+](=O)[O-])c(O)c([N+](=O)[O-])c1.c1ccc(Oc2ccncc2)cc1 | inactive
CCOC(=O)c1ccc(NP(C)(=O)Oc2ccc(OC)cc2)cc1 (centres undefined) | inactive
CP(=O)(Nc1ccccn1)Oc1ccc(Cl)cc1 (centres undefined) | inactive
CP(=O)(Oc1ccccc1)OC(c1ccccc1)C(F)(F)F (centres undefined) | inactive
CP(=O)(Nc1ccc(SC(F)(F)F)cc1)Oc1ccc(Cl)cc1 (centres undefined) | inactive
Cc1cccc(C)c1OP(C)(=O)Nc1ccc(SC(F)(F)F)cc1 (centres undefined) | inactive
Cc1cc(C)cc(OP(C)(=O)Nc2ccc(SC(F)(F)F)cc2)c1 (centres undefined) | inactive
CP(=O)(NC(=O)Nc1ccccc1)Oc1ccccc1 (centres undefined) | inactive
CCc1ccc(OP(C)(=O)N2CCN(c3ccc([N+](=O)[O-])cc3)CC2)cc1 (centres undefined) | inactive
CCN(CC)CCCOC(=O)C(O)(c1ccccc1)c1ccccc1 | inactive
Cc1ccc(NP(C)(=O)Oc2ccccc2)c(C)c1 (centres undefined) | inactive
COc1ccccc1OP(C)(=O)Nc1ccc(C)cc1 (centres undefined) | inactive
COc1ccc(OP(C)(=O)Nc2cccc(F)c2)cc1 (centres undefined) | inactive
COc1ccccc1OP(C)(=O)Nc1cc(Cl)ccc1C (centres undefined) | inactive
Cc1cc(C)cc(OP(C)(N)=O)c1 (centres undefined) | inactive
Cc1cccc(C)c1OP(C)(N)=O (centres undefined) | inactive
O=[N+]([O-])c1ccc2c(c1)C=Nc1ccccc1O2 | inactive
